Active and inactive are the calls of the source. No cut-off for these calls is given here.
Target: T1, Protein deacetylase HDAC6 (Homo sapiens) (UniProt Q9UBN7)
T1 sequence (whole entry): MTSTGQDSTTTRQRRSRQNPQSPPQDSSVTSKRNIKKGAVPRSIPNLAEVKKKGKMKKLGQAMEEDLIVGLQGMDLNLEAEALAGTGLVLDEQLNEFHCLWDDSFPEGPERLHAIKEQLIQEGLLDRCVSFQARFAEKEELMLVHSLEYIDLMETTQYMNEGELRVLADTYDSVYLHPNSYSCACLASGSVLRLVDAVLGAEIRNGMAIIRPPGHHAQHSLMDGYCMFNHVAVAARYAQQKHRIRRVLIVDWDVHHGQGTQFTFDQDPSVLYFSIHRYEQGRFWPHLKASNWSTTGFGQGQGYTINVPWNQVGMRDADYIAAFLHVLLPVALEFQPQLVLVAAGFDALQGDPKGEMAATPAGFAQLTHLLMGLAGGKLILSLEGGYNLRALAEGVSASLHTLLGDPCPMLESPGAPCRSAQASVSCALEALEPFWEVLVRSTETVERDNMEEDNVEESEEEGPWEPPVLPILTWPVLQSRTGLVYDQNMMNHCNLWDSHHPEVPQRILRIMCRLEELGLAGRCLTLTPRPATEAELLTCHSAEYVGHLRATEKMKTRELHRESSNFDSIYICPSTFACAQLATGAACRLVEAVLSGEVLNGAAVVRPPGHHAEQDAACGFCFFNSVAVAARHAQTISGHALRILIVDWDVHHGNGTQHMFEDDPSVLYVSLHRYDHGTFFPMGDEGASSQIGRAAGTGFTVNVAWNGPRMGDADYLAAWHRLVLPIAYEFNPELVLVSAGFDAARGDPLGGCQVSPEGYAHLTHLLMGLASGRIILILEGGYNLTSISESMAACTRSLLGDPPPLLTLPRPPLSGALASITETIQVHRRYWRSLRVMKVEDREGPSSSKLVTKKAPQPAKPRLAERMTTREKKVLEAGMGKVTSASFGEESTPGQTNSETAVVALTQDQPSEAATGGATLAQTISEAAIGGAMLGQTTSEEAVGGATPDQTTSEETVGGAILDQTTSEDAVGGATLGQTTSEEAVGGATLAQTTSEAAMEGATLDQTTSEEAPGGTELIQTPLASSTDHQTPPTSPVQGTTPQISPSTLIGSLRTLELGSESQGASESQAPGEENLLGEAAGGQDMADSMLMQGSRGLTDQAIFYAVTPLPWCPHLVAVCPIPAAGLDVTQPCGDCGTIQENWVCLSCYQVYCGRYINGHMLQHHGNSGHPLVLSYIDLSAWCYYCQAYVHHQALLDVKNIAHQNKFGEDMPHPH
Conditions: MV4-11, dose 100.0 nM, time 24.0 hrs

inhibition | Structure (SMILES)
Active | CN1C(=O)N2Cc3c(c4cc(OCCN5CCOCC5)ccc4n3Cc3ccc(C(=O)NO)cc3)C(C3CCCCC3)(C2)C1=O (racemic)
Active | CN1C(=O)N2Cc3c(c4cc(O)ccc4n3Cc3ccc(C(=O)NO)cc3)C(c3cccs3)(C2)C1=O (racemic)
Active | CN1C(=O)N2Cc3c(c4cc(OCCN5CCOCC5)ccc4n3Cc3ccc(C(=O)NO)cc3)C(c3ccco3)(C2)C1=O (racemic)
